Tests used:
human GIPR = molecular target: T1, human GIPR (Homo sapiens, UniProt P48546); test: Agonistic activity for GIPR, cAMP HTRF in CHO-K1 cells transiently transfected with hGIPR; assay type: cell-based
T1 construct: expressed in transfected cells; host or cells: wild-type CHO-K1, transient transfection with hGIPR plasmid (Fugene HD)
T1 sequence (P48546 22-466): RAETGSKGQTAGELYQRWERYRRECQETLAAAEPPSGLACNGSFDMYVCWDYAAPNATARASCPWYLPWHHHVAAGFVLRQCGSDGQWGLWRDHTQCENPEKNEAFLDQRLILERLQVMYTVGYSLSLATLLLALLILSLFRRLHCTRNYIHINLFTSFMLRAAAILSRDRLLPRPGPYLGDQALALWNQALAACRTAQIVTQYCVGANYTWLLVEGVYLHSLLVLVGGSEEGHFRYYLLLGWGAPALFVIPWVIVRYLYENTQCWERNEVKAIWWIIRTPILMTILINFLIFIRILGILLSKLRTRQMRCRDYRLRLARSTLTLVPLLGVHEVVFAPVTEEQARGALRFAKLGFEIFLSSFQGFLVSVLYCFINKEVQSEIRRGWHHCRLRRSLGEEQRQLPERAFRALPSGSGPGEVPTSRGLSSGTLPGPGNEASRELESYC
Method: Wild-type CHO-K1 cells were collected, and the cell suspension was adjusted to an appropriate density, plated in a 6-well plate at 2 mL per well, and placed in a 37° C., 5% CO2 incubator for adhesion overnight. The mixture for transfection (hGIPR plasmid, Fugene HD (Promega Cat #E2311), OptiMEM (Gibco Cat #31985070)) was mixed well, placed at room temperature for 15 minutes, and was added at 100 μL to the corresponding cell well. After transfection of CHO-K1 cells for 24 h, hGIPR was over-expressed on the cell surface. The cells in 6-well plate were collected after the transient transfection, and were washed once with the experimental buffer (DMEM/F12 medium (Gibco Cat #11330032) comprising 0.1% casein (Sigma Cat #C3400)), and the cell density was adjusted with the experimental buffer. The cells were plated at a density of 5000 cells/5 μL/well in a 384-well plate (Sigma Cat #CLS4514), and then 2.5 μL of IBMX working solution (Sigma Cat #17018) prepared with buffer solution (the final concentration of IBMX was 0.5 mM) and 2.5 μL of the gradient diluted polypeptide sample were added into each well, centrifuged at 1000 rpm for 1 min, shaken for 30 seconds to mix well, and incubated at room temperature for 30 minutes. Cisbio cAMP-Gs Dynamic kit (Cisbio Cat #62 AM4PEC) was used for detection. cAMP-d2 and Anti-cAMP-Eu3+-Cryptate were diluted with 20-fold cAMP Lysis & Detection Buffer respectively, and mixed well. 5 μL of the diluted cAMP-d2 solution was added into each well, and then 5 μL of the diluted Anti-cAMP-Eu3+-Cryptate solution was added into each well, shaken for 30 seconds to mix well, and incubated at room temperature for 1 hour in the dark.
HTRF signal was read with Biotek Synergy H1 microplate reader, with the excitation wavelength of 320 nm, and emission wavelength of 620 nm and 665 nm. The signal ratio (665 nm/620 nm*10,000) was calculated, and the signal ratio was nonlinear fitted to the sample concentration with four-parameter equation in GraphPad Prism 6, resulting in the EC50 values.

Protein sequences, listed by entry. Tags and fused reporters are not part of them. Residues count along the entry.
UniProt P43220, 24-463: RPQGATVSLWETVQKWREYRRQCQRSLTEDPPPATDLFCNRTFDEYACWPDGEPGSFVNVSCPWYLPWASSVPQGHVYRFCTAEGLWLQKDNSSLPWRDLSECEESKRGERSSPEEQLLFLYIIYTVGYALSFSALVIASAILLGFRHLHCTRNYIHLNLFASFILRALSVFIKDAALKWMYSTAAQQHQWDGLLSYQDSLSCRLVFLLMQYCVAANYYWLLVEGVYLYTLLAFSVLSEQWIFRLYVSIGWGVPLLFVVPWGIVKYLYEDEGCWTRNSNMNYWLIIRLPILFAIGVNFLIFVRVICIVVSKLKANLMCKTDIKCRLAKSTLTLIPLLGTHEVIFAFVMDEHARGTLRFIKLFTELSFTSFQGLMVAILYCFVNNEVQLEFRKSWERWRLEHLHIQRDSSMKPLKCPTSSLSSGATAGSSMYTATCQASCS

human GLP-1R = molecular target: T2, human GLP-1R (Homo sapiens, UniProt P43220); test: Agonistic activity for GLP-1R, cAMP HTRF in CHO-K1/GLP-1R/CRE-luc stably transfected cells; assay type: cell-based
T2 construct: expressed in transfected cells; host or cells: CHO-K1 (stably transfected, with CRE-luc reporter)

[1] = Stability of the compounds in SD rat plasma (LC-MS); assay type: in vitro ADME; settings: for Relative content of the residual compounds in plasma (%) 0 min: 0 min (control, set to 100%)
Method: Five microliters of samples with concentrations of 20, 50, 100, 200, 500, 1000, 2000, 5000, 10000 ng/ml were added into 45 microliters of SD rat plasma, and the compound contents were detected by LC-MS, and a standard curve was plotted. 5 microliters of the polypeptide solution with a concentration of 1 mg/ml was added into 45 microliters of SD rat plasma. Five samples were prepared for each test compound, and 1 sample was taken out at 0 min, 30 min, 60 min, 120 min, and 240 min respectively. The content of the residual compounds was detected by LC-MS. The content at 0 min was used as control (100%), and the relative contents of the residual compound in the sample at other time points were calculated. The LC-MS method for the detection of the compounds was as follows: 5% acetonitrile solution was prepared as solution A, and 95% acetonitrile solution was prepared as solution B; 15 microliters of samples were injected at a flow rate of 0.6 ml/min, the time duration and the solution gradient ratio were as shown in the following table; the content of the compound was detected with Raptor Biphenyl 2.7 micron detection column.

[2] = Pharmacokinetics in rats, single subcutaneous injection; assay type: in vivo; settings: SD rats, 50 nanomoles per kilogram, plasma
Method: Male SD rats weighing 150-300 grams were purchased from Shanghai Jiesijie Laboratory Animal Co., Ltd. The numbered compounds were prepared with 20 mM citrate buffer (pH=7.0), and then were injected into the rat via subcutaneous injection at a dose of 50 nanomoles per kilogram of body weight. 0.2 ml of the blood was sampled at time points of 0 hour, 0.5 hour, 1 hour, 2 hour, 4 hour, 6 hour, 8 hour, 24 hour, 32 hour, 48 hour, 72 hour, 96 hour and 120 hour. The collected rat blood was centrifuged at 6000 rpm for 6 minutes at a temperature of 4° C. to isolate plasma. The content of the numbered compound in rat plasma was detected by the experimental method of Test example 3.3.

[3] = Pharmacokinetics in mice, single intravenous injection; assay type: in vivo; settings: Balb/c mice, intravenous (tail vein), 30 nanomoles per kilogram, plasma
Method: Male Balb/c mice weighing 18-30 grams and 7-9 weeks old were purchased from Shanghai Jiesijie Laboratory Animal Co., Ltd. The numbered compounds were prepared with 20 mM citrate buffer (pH=7.0), and then were injected into the mice via tail vein at a dose of 30 nanomoles per kilogram of body weight. 0.2 ml of the blood was sampled at time points of 0 hour, 0.083 hour, 0.25 hour, 0.5 hour, 1 hour, 2 hour, 4 hour, 6 hour, 8 hour, 24 hour and 32 hour. The collected mouse blood was centrifuged at 6000 rpm for 6 minutes at a temperature of 4° C. to isolate plasma. The content of the numbered compound in mouse plasma was detected by the experimental method of Test example 3.3.

[4] = Table 5, polypeptide compounds coupled to fatty acid
[5] = Table 4, polypeptide backbone compounds

H-YAibEGTFTSDYSIYLDKIAAQEFVNWLL AGGPSSGAPPPSK(OEG-OEG-yGlu-C18-OH)-NH2 [Compound 62]
EC50 (human GIPR; [4]): 0.045 nM | EC50 (human GLP-1R; [4]): 0.32 nM

H-YAibEGTFTSDYSIYLEKIAAQEFVNWLLAGK(OEG-OEG-yGlu-C18-OH)PSSGAPPPS-NH2 [Compound 29]
EC50 (human GIPR; [4]): 0.015 nM | EC50 (human GLP-1R; [4]): 0.24 nM

H-HAibEGTFTSDVSSYLEEEAAKEFVNWLLAGGPSSGAPPPSK-NH2 [Compound 5]
EC50 (human GIPR; [5]): > 10 nM | EC50 (human GLP-1R; [5]): 0.004 nM

H-YAibEGTFTSDYSIYLDKIAAK(OEG-OEG-yGlu-C18-OH)EFVNWLLAGGPSSGAPPPS-NH2 [Compound 60]
EC50 (human GIPR; [4]): 0.02 nM | EC50 (human GLP-1R; [4]): 0.2 nM

H-YAibEGTFTSDYSIYLEKIAAK(OEG-OEG-yGlu-C18-OH)EFVNWLLAGGPSSGAPPPS-NH2 [Compound 30]
EC50 (human GIPR; [4]): 0.021 nM | EC50 (human GLP-1R; [4]): 0.058 nM

H-YAibEGTFTSDYSIYLEKIAAQEFVNWLLAGGPSSGAPPPSK(OEG-OEG-yGlu-C20-OH)-NH2 [Compound 74]
Relative content of the residual compounds in plasma (%) 0 min ([1]; Table 7): 100.00% | Relative content of the residual compounds in plasma (%) 30 min ([1]; Table 7): 95.54% | Relative content of the residual compounds in plasma (%) 60 min ([1]; Table 7): 104.74% | Relative content of the residual compounds in plasma (%) 120 min ([1]; Table 7): 100.10% | Relative content of the residual compounds in plasma (%) 240 min ([1]; Table 7): 91.16% | relative content in plasma at a time point of 4 hour ([1]; 4 hour): > 90% | EC50 (human GIPR; [4]): 0.046 nM | EC50 (human GLP-1R; [4]): 0.068 nM | AUCInf [2]: 17673 ng·h/mL | T1/2 [2]: 15.9 h | AUCInf [3]: 30698 ng·h/mL | T1/2 [3]: 19.5 h

H-YAibEGTFTSDYSIYLEKEAAK(OEG-OEG-yGlu-C18-OH)EFVNWLLAGGPSSGAPPPS-NH2 [Compound 27]
EC50 (human GIPR; [4]): 0.11 nM | EC50 (human GLP-1R; [4]): 0.12 nM

H-HAibEGTFTSDVSSYLEEEAAKEFIAWLVRGGPSSGAPPPSK-NH2 [Compound 1]
EC50 (human GIPR; [5]): > 10 nM | EC50 (human GLP-1R; [5]): 0.005 nM

H-YAibEGTFTSDYSIYLEKIAAQEFVNWLLAGGPSSGAPPPSK(OEG-OEG-yGlu-C18-OH)-NH2 [Compound 28]
EC50 (human GIPR; [4]): 0.02 nM | EC50 (human GLP-1R; [4]): 0.074 nM | AUCInf [3]: 9500 ng·h/mL | T1/2 [3]: 4.7 h

H-YAibEGTFTSDYSIYLEKIAAQEFVNWLIAGGPSSGAPPPSK(OEG-OEG-yGlu-C20-OH)-NH2 [Compound 83]
EC50 (human GIPR; [4]): 0.032 nM | EC50 (human GLP-1R; [4]): 0.028 nM

H-YAibEGTFTSDYSIYLEKIAAQEFVNWLIAGGPSSGAPPPS-NH2 [Compound 80]
EC50 (human GIPR; [5]): 0.008 nM | EC50 (human GLP-1R; [5]): 0.008 nM

H-YAibEGTFTSDYSIYLEKEAAKEFVNWLLAGGPSSGAPPPSK(OEG-OEG-yGlu-C18-OH)-NH2 [Compound 25]
EC50 (human GIPR; [4]): 0.059 nM | EC50 (human GLP-1R; [4]): 0.031 nM

H-YAibEGTFTSDYSIYLEKIAAK(OEG-OEG-yGlu-C20-OH)EFVNWLLAGGPSSGAPPPS-NH2 [Compound 75]
Relative content of the residual compounds in plasma (%) 0 min ([1]; Table 7): 100.00% | Relative content of the residual compounds in plasma (%) 30 min ([1]; Table 7): 101.51% | Relative content of the residual compounds in plasma (%) 60 min ([1]; Table 7): 92.07% | Relative content of the residual compounds in plasma (%) 120 min ([1]; Table 7): 84.74% | Relative content of the residual compounds in plasma (%) 240 min ([1]; Table 7): 57.83% | EC50 (human GIPR; [4]): 0.16 nM | EC50 (human GLP-1R; [4]): 0.2 nM

H-YAibEGTFTSDYSIYLEKIAAQEFVNWLLAGGPSSGAPPPSK-NH2 [Compound 14]
Relative content of the residual compounds in plasma (%) 0 min ([1]; Table 6): 100.00% | Relative content of the residual compounds in plasma (%) 30 min ([1]; Table 6): 106.04% | Relative content of the residual compounds in plasma (%) 60 min ([1]; Table 6): 107.00% | Relative content of the residual compounds in plasma (%) 120 min ([1]; Table 6): 112.14% | Relative content of the residual compounds in plasma (%) 240 min ([1]; Table 6): 102.16% | EC50 (human GIPR; [5]): 0.006 nM | EC50 (human GLP-1R; [5]): 0.008 nM

Source: patent US12678489B2, “Multi-receptor agonist and medical use thereof” (JIANGSU HANSOH PHARMACEUTICAL GROUP CO., LTD., priority 2019, dated 2026)
